## Antibody variant affinities, Ab-91 heavy chain, assay 2

Values reported by Engelhart et al. 2022, doi:10.1038/s41597-022-01779-4 (FLAb copy).

Target peptide (SARS-CoV-2 spike, HR2 region): PDVDLGDISGINAS

The variants keep the light chain, the linker and the frameworks of Ab-91 (scFv order VL, the linker GGGGSGGGGSGGGGS, VH).
VL: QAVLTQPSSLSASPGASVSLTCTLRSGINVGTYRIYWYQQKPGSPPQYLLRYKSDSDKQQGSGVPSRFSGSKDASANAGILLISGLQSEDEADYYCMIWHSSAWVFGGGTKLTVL
VH: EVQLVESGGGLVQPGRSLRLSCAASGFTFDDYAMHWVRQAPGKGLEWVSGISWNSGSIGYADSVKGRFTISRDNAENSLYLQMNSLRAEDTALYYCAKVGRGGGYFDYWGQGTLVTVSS

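Phage display of a naive human antibody library on the peptide gave the parent. Variants in AAYL51 differ from the parent at up to three CDR positions; double and triple changes were sampled at random. Affinity was read by AlphaSeq, a pooled yeast mating assay with surface-displayed partners. Binding brings cells together so that they mate, and sequencing counts the barcode pairs among the diploids. Each replicate has its own calibration line, from reference interactions of the BCL2 family. There are three technical replicates.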

The parent's heavy chain CDRs are GFTFDDYAMH, GISWNSGSIGYADSVK, VGRGGGYFDY; each variant's own CDRs replace them letter for letter. Affinities are written as log10 Kd with Kd in nM; a lower number is a better binder. Averages over replicates are reported, and they cover detected replicates only. "not detected" marks a missing value. The strain was present, yet no cells mated with the target were sequenced in any replicate, which points to weak or no binding. Empty control strains, which show no peptide, gave a signal in 21% of pairings with library AAYL51; the median was 4.54 and 95% of these signals were weaker than 3.26. No background was subtracted. The control count says in how many pairings with the empty strains this scFv gave a signal.

log10 Kd (nM), mean	seen in	control signals	CDR-H1	CDR-H2	CDR-H3
not detected	0/3	1/9	PFTFDDRAMH	GISWNSGSIGYADSVK	VGRGYGYFDY
6.13	1/3	5/9	GWTFDDYAMH	GISWHSGSIWYADSVK	VGRGGGYFDY
4.99	2/3	8/9	GFTFDDTAMH	GIYWNSGSIGYADSVK	VGRGGGYFDG
not detected	0/3	0/9	GFTFDDKAMH	GISWNSGLSGYADSVK	VGRGGGYFDY
5.63	3/3	6/9	GFTFDDYAMH	GIWKNSGSIGYADGVK	VGRGGGYFDY
4.32	2/3	2/9	GFTFDDYAMH	GISWNSGSIGYADKVK	VGCGGGYFDD
not detected	0/3	2/9	FFTFDDYAMH	KISWNSGSIGYADSVK	VGRGHGYFDY
not detected	0/3	0/9	GFTFDDQAMH	VIIWNSGSIGYADSVK	VGRGGGYFDY
5.09	2/3	2/9	GFTFDDYAMH	GIRWNSNSIGYADSVK	VYRGGGYFDY
4.94	3/3	8/9	GRTFDDYAMH	GISRNSGSIGYADSVK	VGRGGGDFDY
6.01	1/3	4/9	GFTFDDYAMH	GISWFSGSIGYADSAK	VGRGGGYFDK
not detected	0/3	1/9	GFTFDDYAPH	GISWNSGSIGYADSVK	GGRGGGYFDY
1.59	3/3	1/9	GFTFDDYAMH	GISFNSGMIGYAPSVK	VGRGGGYFDY
not detected	0/3	2/9	GFTGDSYAMD	GISWNSGSIGYADSVK	VGRGGGYFDY
4.11	1/3	4/9	GFTFDDYVMH	GISWNSGSIGYADSVK	VGRCGGYFLY
not detected	0/3	0/9	GFTFDDYAMH	GISWNSGSKGYADSVK	VGRGGPDFDY
4.95	3/3	8/9	GFTFDDYAMH	GHSWNSGSIGYADSVK	VGGAGGYFDY
not detected	0/3	2/9	GFTFDDYLMH	GISWNSGSMGYADSVK	VGRGGGYFDY
5.19	2/3	4/9	GGTFDDYAMH	GISWASGSIGVADSVK	VGRGGGYFDY
not detected	0/3	2/9	GFTFDDYAML	GISWNSGSIGYADSVK	VGVGGGYFDY
4.08	1/3	1/9	GFTFDCYAMH	GISWNSGSIGIADSVK	VPRGGGYFDY
2.70	3/3	2/9	GFTFDDYAMH	GISCNSGSIGYADSVK	VGRGGGYFGY
4.62	1/3	0/9	GFTFDDYAWH	GISWNSGSIGYADSAK	VGRGGGYFDY
not detected	0/3	1/9	GFTFDDSAMH	GISWNSGSIGYADSVK	VGRGIGYFDY
not detected	0/3	0/9	GFTFDDYAMH	GISWMSGSWGYALSVK	VGRGGGYFDY
not detected	0/3	1/9	QFTFDDYAMH	GISWNSGSIGYADSVK	CGRNGGYFDY
4.73	3/3	7/9	GFTFDDLAMH	GISWNSGSIGLDDSVK	VGRGGGYFDY
4.74	2/3	1/9	GFTFQDYAMH	GNSWNSGSIGYADSVK	VGIGGGYFDY
4.24	3/3	5/9	DFTFDCYAMH	GISWTSGSIGYADSVK	VGRGGGYFDY
not detected	0/3	1/9	GFTFDDYAMH	GISWNSGSIGPADSVC	VGRGHGYFDY
0.75	3/3	5/9	GFTFDDYAMH	GISPNSGAIGYADSVK	VGGGGGYFDY
1.26	3/3	0/9	GFTFDDYAMH	GISWNSGSIGYASSVK	VGAGGGYFDY
5.56	3/3	7/9	GFTFDDYAMH	GISWNSGSIGYADSYK	VGRGGADFDY
not detected	0/3	1/9	GFTFDDYAMH	GIWWNSGSIGYADSVK	VGCGGGYHDY
not detected	0/3	1/9	GFTFDDYAMH	VISWNSGSIGYADSVK	VLRGGGYFDY
5.55	3/3	6/9	GFTFDDYAMH	GISWNQGSIGYADSVK	VGRGGCYFDY
5.43	2/3	1/9	GFTFDDYAMH	GISWNSGSIGYADSVK	VGRGGGANDT
not detected	0/3	2/9	GFTFDDYAMH	GCSWNSGSIGYADSVE	VGRGGGYFDN
4.55	1/3	2/9	GFTFDDYAMH	GISWNSGSIGYADSSK	VGRGGGMFDY
4.30	1/3	5/9	GFTFFDYAMH	GWSWNSGSIGYADSVK	VQRGGGYFDY
not detected	0/3	1/9	WFTFDDYAMH	GICWNSGCIGYADSVK	VGRGGGYFDY
not detected	0/3	0/9	GFTFDVYAMH	GISWTSGSIGYADSVK	VIRGGGYFDY
3.64	3/3	8/9	GFTFDDYSMH	GISWNSGSIGYADSVK	VGRPGGYFDY
2.30	3/3	0/9	GFTFDDYAMH	GISWNSGSIGYADSVK	VYIGGGYVDY
4.90	1/3	5/9	GFGFDDYAMH	GISWNSGSIGYADSVK	EGRGGGYMDY
4.87	1/3	4/9	GFTTDDYAMH	GISWNSGSIGYADWVK	VGRGGGYSDY
not detected	0/3	0/9	GATFDDYAMH	GISWNSGSIGYADSDK	VGRGGGYFDV
5.51	1/3	1/9	GHKFDDYASH	GISWNSGSIGYADSVK	VGRGGGYFDY
not detected	0/3	1/9	GFTFDDYAMH	WISWNSGSIGYADSVK	VGHGGGYQDY
not detected	0/3	0/9	GSTFDDGAMH	GISWNSGSIGYRDSVK	VGRGGGYFDY
4.35	1/3	5/9	GFTFDDYAMH	AISWNSGSIGRANSVK	VGRGGGYFDY
4.49	2/3	3/9	GFTFDDYAMH	GISWNSSSIGYADSKK	VGRGGGYFVY
not detected	0/3	2/9	GFTFDDYKMH	GISWKSGSIVYADSVK	VGRGGGYFDY
4.87	1/3	1/9	GFTFDDYAMA	GISWNSGSIGYKDSVI	VGRGGGYFDY
3.81	1/3	0/9	GFTFDDYAMH	GISWNSGSQGYADSQK	VGRGGGYFCY
not detected	0/3	0/9	GFTFDDYAMH	GVSWNSGSIGYEDSVK	VGTGGGYFDY
5.70	1/3	2/9	RFTFDDYAMG	GISWNSGSIGYADSVK	VGRGGGYFDC
5.55	2/3	4/9	GFTFDDYAMH	AISWNSGQIRYADSVK	VGRGGGYFDY
not detected	0/3	0/9	GFTFDDYAMH	GISWNSGSCGYAPSVK	VGRRGGYFDY
not detected	0/3	1/9	GFLFDDYAMH	GISWNSMSIGYADSVK	VGRGGLYFDY

The last 10 entries again:

CDR-H1	CDR-H2	CDR-H3	log10 Kd (nM), mean	seen in	control signals
GFTFDDYAMH	AISWNSGSIGRANSVK	VGRGGGYFDY	4.35	1/3	5/9
GFTFDDYAMH	GISWNSSSIGYADSKK	VGRGGGYFVY	4.49	2/3	3/9
GFTFDDYKMH	GISWKSGSIVYADSVK	VGRGGGYFDY	not detected	0/3	2/9
GFTFDDYAMA	GISWNSGSIGYKDSVI	VGRGGGYFDY	4.87	1/3	1/9
GFTFDDYAMH	GISWNSGSQGYADSQK	VGRGGGYFCY	3.81	1/3	0/9
GFTFDDYAMH	GVSWNSGSIGYEDSVK	VGTGGGYFDY	not detected	0/3	0/9
RFTFDDYAMG	GISWNSGSIGYADSVK	VGRGGGYFDC	5.70	1/3	2/9
GFTFDDYAMH	AISWNSGQIRYADSVK	VGRGGGYFDY	5.55	2/3	4/9
GFTFDDYAMH	GISWNSGSCGYAPSVK	VGRRGGYFDY	not detected	0/3	0/9
GFLFDDYAMH	GISWNSMSIGYADSVK	VGRGGLYFDY	not detected	0/3	1/9

For reference, the parent read 1.86 as the reference entry and 0.88 as a member of this library.